Results reported in publication PMC6374102 (Science Advances, 2019).

Assay: In vitro release of LENK from NPs / bioconjugate stability in serum
Type: in vitro ADME
Conditions: 900 μl male SWISS mouse serum, 37°C + 300 μl NPs (2 mg/ml); RP-HPLC, UV 257 nm

SMILES: CC(C)=CCC/C(C)=C/CC/C(C)=C/CC/C=C(\C)CC/C=C(\C)CCCOC(=O)COCC(=O)NC(Cc1ccc(O)cc1)C(=O)NCC(=O)NCC(=O)NC(Cc1ccccc1)C(=O)NC(CC(C)C)C(=O)O (stereo not shown) [LENK-SQ-Dig, Leu-enkephalin-squalene with diglycolic linker]
- Time over which the peptide-linker fragment could still be detected: over 10 hours
